Consider six molecules from ChEMBL document CHEMBL4257577, “Pyridinium Oximes with Ortho-Positioned Chlorine Moiety Exhibit Improved Physicochemical Properties and Efficient Reactivation of Human Acetylcholinesterase Inhibited by Several Nerve Agents” (2018).

By UniProt entry, the sequences of proteins in these tests, tags left out. Where a name states a change or a piece, a line headed by the entry shows the natural chain unless it says otherwise.
UniProt P22303: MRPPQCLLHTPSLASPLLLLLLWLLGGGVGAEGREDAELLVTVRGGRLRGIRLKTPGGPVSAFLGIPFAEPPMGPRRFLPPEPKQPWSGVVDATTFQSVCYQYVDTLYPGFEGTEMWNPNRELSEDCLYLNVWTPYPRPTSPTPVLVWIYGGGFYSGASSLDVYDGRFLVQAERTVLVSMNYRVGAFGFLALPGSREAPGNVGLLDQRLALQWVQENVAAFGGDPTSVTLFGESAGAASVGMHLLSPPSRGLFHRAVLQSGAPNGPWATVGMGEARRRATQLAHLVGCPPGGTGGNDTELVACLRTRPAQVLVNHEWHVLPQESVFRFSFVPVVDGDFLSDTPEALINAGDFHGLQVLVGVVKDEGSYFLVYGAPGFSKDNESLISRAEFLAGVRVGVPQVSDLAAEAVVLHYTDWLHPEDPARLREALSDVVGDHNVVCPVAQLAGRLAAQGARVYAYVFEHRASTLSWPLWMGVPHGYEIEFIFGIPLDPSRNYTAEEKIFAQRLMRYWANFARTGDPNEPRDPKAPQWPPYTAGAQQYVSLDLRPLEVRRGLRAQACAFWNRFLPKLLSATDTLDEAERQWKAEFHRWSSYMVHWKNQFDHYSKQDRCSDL
UniProt P06276, whole entry, looked up: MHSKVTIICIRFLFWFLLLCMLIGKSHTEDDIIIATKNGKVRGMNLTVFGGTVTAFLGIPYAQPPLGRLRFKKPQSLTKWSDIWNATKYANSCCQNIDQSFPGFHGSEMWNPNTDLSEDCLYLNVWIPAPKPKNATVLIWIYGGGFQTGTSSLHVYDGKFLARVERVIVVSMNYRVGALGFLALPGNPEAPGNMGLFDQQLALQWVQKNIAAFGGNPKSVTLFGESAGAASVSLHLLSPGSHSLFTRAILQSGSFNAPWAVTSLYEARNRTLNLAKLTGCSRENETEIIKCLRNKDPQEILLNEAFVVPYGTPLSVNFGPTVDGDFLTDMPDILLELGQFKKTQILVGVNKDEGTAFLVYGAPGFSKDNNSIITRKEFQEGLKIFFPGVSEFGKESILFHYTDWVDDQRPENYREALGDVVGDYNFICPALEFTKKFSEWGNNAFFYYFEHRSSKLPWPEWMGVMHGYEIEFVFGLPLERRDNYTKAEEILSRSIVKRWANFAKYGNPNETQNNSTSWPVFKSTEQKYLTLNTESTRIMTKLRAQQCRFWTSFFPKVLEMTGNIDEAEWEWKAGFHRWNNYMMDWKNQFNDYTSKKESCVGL

Molecules are shown by their SMILES.

The target in assay [1] is Acetylcholinesterase (Homo sapiens) (UniProt P22303). Description: Reactivation of sarin-inhibited human recombinant AChE using acetylthiocholine iodide as substrate assessed as dissociation constant of conjugated enzyme-oxime complex by Ellman spectrophotometric method. (Ellman's reagent forms a yellow product with free thiols.)
For assay [2] the target is unchanged. Description: Reactivation of cyclosarin-inhibited human recombinant AChE using acetylthiocholine iodide as substrate assessed as time required for maximal percentage of reactivation by Ellman spectrophotometric method.
The target is the same in assay [3]. The experiment in a line: Reactivation of cyclosarin-inhibited human recombinant AChE using acetylthiocholine iodide as substrate assessed as dissociation constant of conjugated enzyme-oxime complex by Ellman spectrophotometric method.
The target is the same in assay [4]. Description: Reactivation of tabun-inhibited human recombinant AChE using acetylthiocholine iodide as substrate assessed as time required for maximal percentage of reactivation by Ellman spectrophotometric method.
Assay [5] shares this target. The experiment in a line: Reactivation of sarin-inhibited human recombinant AChE using acetylthiocholine iodide as substrate assessed as time required for maximal percentage of reactivation by Ellman spectrophotometric method.
Assay [6] shares this target. Description: Reactivation of sarin-inhibited human recombinant AChE using acetylthiocholine iodide as substrate by Ellman spectrophotometric method relative to control.
Assay [7] shares this target. The experiment in a line: Reactivation of sarin-inhibited human recombinant AChE using acetylthiocholine iodide as substrate assessed as maximal first-order reactivation rate by Ellman spectrophotometric method.
The target is the same in assay [8]. Description: Reactivation of VX-inhibited human recombinant AChE using acetylthiocholine iodide as substrate assessed as maximal first-order reactivation rate by Ellman spectrophotometric method.
Assay [9] shares this target. Description: Reactivation of VX-inhibited human recombinant AChE using acetylthiocholine iodide as substrate assessed as dissociation constant of conjugated enzyme-oxime complex by Ellman spectrophotometric method.
Assay [10] has the same target. Description: Reactivation of cyclosarin-inhibited human recombinant AChE using acetylthiocholine iodide as substrate assessed as overall second-order reactivation rate by Ellman spectrophotometric method.
The target is the same in assay [11]. The experiment in a line: Reactivation of sarin-inhibited human recombinant AChE using acetylthiocholine iodide as substrate assessed as overall second-order reactivation rate by Ellman spectrophotometric method.
Assay [12] shares this target. Description: Reactivation of VX-inhibited human recombinant AChE using acetylthiocholine iodide as substrate assessed as time required for maximal percentage of reactivation at 500 uM by Ellman spectrophotometric method.
For assay [13] the target is unchanged. Description: Reactivation of tabun-inhibited human recombinant AChE using acetylthiocholine iodide as substrate by Ellman spectrophotometric method relative to control.
The target is the same in assay [14]. The experiment in a line: Reactivation of VX-inhibited human recombinant AChE using acetylthiocholine iodide as substrate assessed as overall second-order reactivation rate by Ellman spectrophotometric method.
For assay [15] the target is unchanged. The experiment in a line: Reactivation of tabun-inhibited human recombinant AChE using acetylthiocholine iodide as substrate assessed as overall second-order reactivation rate by Ellman spectrophotometric method.
Assay [16] has the same target. Description: Reactivation of cyclosarin-inhibited human recombinant AChE using acetylthiocholine iodide as substrate assessed as maximal first-order reactivation rate by Ellman spectrophotometric method.
The target is the same in assay [17]. The experiment in a line: Reactivation of tabun-inhibited human recombinant AChE using acetylthiocholine iodide as substrate assessed as maximal first-order reactivation rate by Ellman spectrophotometric method.
For assay [18] the target is unchanged. The experiment in a line: Reactivation of VX-inhibited human recombinant AChE at 500 uM using acetylthiocholine iodide as substrate by Ellman spectrophotometric method relative to control.
Assay [19] concerns the target Cholinesterases; ACHE & BCHE (Homo sapiens) (UniProt P06276+P22303). Description: Selectivity ratio of Ki for human plasma BChE to Ki for recombinant human AChE.
For assay [20], the target named is Acetylcholinesterase (Homo sapiens) (UniProt P22303). Description: Reactivation of tabun-inhibited human recombinant AChE using acetylthiocholine iodide as substrate assessed as dissociation constant of conjugated enzyme-oxime complex by Ellman spectrophotometric method.
The target is the same in assay [21]. Description: Reactivation of cyclosarin-inhibited human recombinant AChE using acetylthiocholine iodide as substrate by Ellman spectrophotometric method relative to control.
Assay [22] shares this target. The experiment in a line: Reactivation of VX-inhibited human recombinant AChE using acetylthiocholine iodide as substrate assessed as time required for maximal percentage of reactivation at 200 uM by Ellman spectrophotometric method.
For assay [23] the target is unchanged. Description: Reactivation of VX-inhibited human recombinant AChE at 200 uM using acetylthiocholine iodide as substrate by Ellman spectrophotometric method relative to control.
Assay [24] shares this target. Description: Reactivation of tabun-inhibited human erythrocytic AChE using acetylthiocholine iodide as substrate by Ellman spectrophotometric method relative to control.
For assay [25] the target is unchanged. Description: Reactivation of tabun-inhibited human erythrocytic AChE using acetylthiocholine iodide as substrate assessed as maximal first-order reactivation rate by Ellman spectrophotometric method.
Assay [26] shares this target. The experiment in a line: Reactivation of tabun-inhibited human erythrocytic AChE using acetylthiocholine iodide as substrate assessed as time required for maximal percentage of reactivation by Ellman spectrophotometric method.
Assay [27] shares this target. Description: Reactivation of VX-inhibited human recombinant AChE at 1 mM using acetylthiocholine iodide as substrate by Ellman spectrophotometric method relative to control.
Assay [28] has the same target. The experiment in a line: Reactivation of tabun-inhibited human erythrocytic AChE using acetylthiocholine iodide as substrate assessed as dissociation constant of conjugated enzyme-oxime complex by Ellman spectrophotometric method.
Assay [29] shares this target. Description: Reactivation of VX-inhibited human recombinant AChE using acetylthiocholine iodide as substrate assessed as time required for maximal percentage of reactivation at 1 mM by Ellman spectrophotometric method.
Assay [30] shares this target. The experiment in a line: Reactivation of tabun-inhibited human erythrocytic AChE using acetylthiocholine iodide as substrate assessed as overall second-order reactivation rate by Ellman spectrophotometric method.

As to `NC(=O)c1cc[n+](C/C=C/C[n+]2ccc(/C=N/O)c(Cl)c2)cc1`, the K in [1] is 840 µM; in assay [3], 160 µM; in [7], 0.35 min⁻¹; in [8], 0.14 min⁻¹; in assay [9] it was 320 µM; in [10] it was 240 M⁻¹ min⁻¹. Further, the K in assay [11] is 420 M⁻¹ min⁻¹; in assay [14], 440 M⁻¹ min⁻¹; in [15], 560 M⁻¹ min⁻¹; in assay [16] it was 0.04 min⁻¹; in assay [17], 0.021 min⁻¹; in [20], 40 µM. The TIME in [2] was found to be 2 h; in [4], 3.5 h; in [5], 1 h; in [12], 1 h. Besides, the %max in [6] is 80%; in [13] it was 80%; in assay [18] it was 100%; in [21], 100%. Besides, the Ratio Ki in assay [19] amounted to 12.3.
For `NC(=O)c1cc[n+](CCCC[n+]2ccc(/C=N/O)c(Cl)c2)cc1`, the K in assay [1] is 1150 µM; in [3] it was 80 µM; in assay [7], 0.38 min⁻¹; in assay [8] it was 0.18 min⁻¹; in assay [9] it was 430 µM; in assay [10] it was 340 M⁻¹ min⁻¹. The K is 330 M⁻¹ min⁻¹ in [11]; 410 M⁻¹ min⁻¹ in assay [14]; 470 M⁻¹ min⁻¹ in assay [15]; 0.027 min⁻¹ in [16]; 0.017 min⁻¹ in assay [17]; 40 µM in assay [20]. The TIME in assay [2] amounted to 2.5 h; in assay [4], 6.5 h; in assay [5], 1.5 h; in assay [12], 1.67 h. Besides, the %max in [6] turned out to be 80%; in assay [13], 80%; in [18], 100%; in assay [21] it was 100%. In addition, the Ratio Ki in assay [19] was determined as 7.4.
Consider `NC(=O)c1cc[n+](C/C=C/C[n+]2cc(Cl)c(/C=N/O)c(Cl)c2)cc1`, for which the K in assay [1] amounted to 60 µM; in [3], 220 µM; in assay [7], 0.17 min⁻¹; in assay [8] it was 0.059 min⁻¹; in assay [9], 10 µM; in assay [10], 2200 M⁻¹ min⁻¹. Besides, the K in assay [11] was 2830 M⁻¹ min⁻¹; in assay [14], 6500 M⁻¹ min⁻¹; in [16], 0.49 min⁻¹. Besides, the TIME in [2] amounted to 0.167 h; in assay [4], 10 h; in assay [5], 0.5 h; in assay [22], 1 h. The %max in assay [6] is 80%; in [13] it was 40%; in assay [23] it was 80%; in [21], 100%. Besides, the Ratio Ki in [19] was 8.5.
On to `NC(=O)c1cc[n+](CCCC[n+]2cc(Cl)c(/C=N/O)c(Cl)c2)cc1`, for which the K amounted to 50 µM in assay [1]; 50 µM in [3]; 0.2 min⁻¹ in assay [7]; 0.18 min⁻¹ in assay [8]; 40 µM in assay [9]; 2120 M⁻¹ min⁻¹ in [10]. In addition, the results for the K in assay [11], in [14] and in [16] were 3880 M⁻¹ min⁻¹, 4310 M⁻¹ min⁻¹ and 0.101 min⁻¹, respectively. Besides, the TIME was found to be 0.667 h in assay [2], 24 h in assay [4], 0.5 h in [5] and 0.333 h in assay [22]. Besides, the %max in assay [6] came to 80%; in assay [13], 20%; in assay [23] it was 60%; in assay [21], 80%. Further, the Ratio Ki in [19] came out at 11.7.
As to `NC(=O)c1cc[n+](CCC[n+]2ccc(/C=N/O)c(Cl)c2)cc1`, the K in [1] was found to be 745 µM; in [3] it was 200 µM; in [7], 0.37 min⁻¹; in assay [8], 0.17 min⁻¹; in assay [9], 200 µM; in assay [10], 2500 M⁻¹ min⁻¹. The K in [11] stood at 490 M⁻¹ min⁻¹; in [14], 820 M⁻¹ min⁻¹; in [15] it was 280 M⁻¹ min⁻¹; in [16], 0.49 min⁻¹; in [17], 0.002 min⁻¹; in assay [20], 7 µM. Besides, the TIME in assay [2] turned out to be 0.167 h; in [4] it was 24 h; in assay [5] it was 1.5 h; in [12], 0.667 h. Further, the %max was found to be 80% in assay [6], 80% in [13], 100% in [18] and 100% in [21]. In assay [19], the Ratio Ki is 6.5.
Turning to `C[n+]1ccccc1C=NO`, the K in [1] turned out to be 190 µM; in assay [3] it was 1180 µM; in [25], 0.009 min⁻¹; in assay [7] it was 0.16 min⁻¹; in assay [8] it was 0.12 min⁻¹; in assay [9] it was 58 µM. Further, the K in assay [10] turned out to be 43 M⁻¹ min⁻¹; in assay [11], 850 M⁻¹ min⁻¹; in [14], 2000 M⁻¹ min⁻¹; in [16] it was 0.05 min⁻¹; in assay [28] it was 570 µM; in [30] it was 16 M⁻¹ min⁻¹. Further, the TIME in [2] was determined as 2 h; in [5], 0.667 h; in [26], 12 h; in assay [29], 0.5 h. Further, the %max in assay [24] is 90%; in assay [6], 85%; in [27], 80%; in [21], 100%. In assay [19], the Ratio Ki turned out to be 2.2.
